According to patent US5047413A (priority 1987, dated 1991):
Converted amounts (≈) assume the structure as drawn.

Key:
[1] = system: guinea-pig urinary bladder muscle; settings: isolated guinea-pig urinary bladder muscle; barium chloride 0.2 mg/ml; relative to propiverine; FIG. 2
[2] = system: guinea pig taenia coli; settings: isolated guinea pig taenia coli, barium chloride 0.2 mg/ml
[3] = system: guinea pig urinary bladder muscle; experiment: neurotropic/spasmolytic effect on isolated guinea pig urinary bladder muscle (carbachol-induced contraction); settings: carbachol 10 μg/ml

Question: How did the “myotropic/spasmolytic activity, factor weaker” value [1] turn out when `CN1CCC(OC(=O)C(OC(=O)CCC(=O)O)(c2ccccc2)c2ccccc2)CC1` was run?
Answer: 14

Question: What about the “myotropic/spasmolytic activity compared with propiverine (in words)” value [2] of the same molecule?
Answer: significantly lower myotropic/spasmolytic activity than propiverine

Question: And the “ED50 (myotropic/spasmolytic activity)” value ([2]; Example 5, FIG. 3)?
Answer: 94 µg/mL (≈ 221 µM)

Question: And the “neurotropic/spasmolytic activity (in words)” value [3]?
Answer: pronounced, almost specific neurotropic/spasmolytic activity

Question: What about the “neurotropic/spasmolytic activity, factor higher than that of propiverine” value ([3]; FIG. 1, relative to propiverine) of the same molecule?
Answer: 50
